# Binding of CDR-mutated scFvs to a peptide of the spike HR2 region

From the AlphaSeq antibody data of Li et al. 2023 (doi:10.1038/s41467-023-39022-2), copy in the FLAb collection.

Binding partner: SARS-CoV-2 spike HR2 peptide, sequence PDVDLGDISGINAS.

Parent: Ab-14, a human scFv built as VH, a 15-residue (Gly4Ser)3 linker, VL. Only the CDRs of the heavy chain vary.
VH: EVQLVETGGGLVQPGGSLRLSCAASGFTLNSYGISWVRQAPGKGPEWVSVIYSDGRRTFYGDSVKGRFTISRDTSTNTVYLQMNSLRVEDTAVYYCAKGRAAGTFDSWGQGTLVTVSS
VL: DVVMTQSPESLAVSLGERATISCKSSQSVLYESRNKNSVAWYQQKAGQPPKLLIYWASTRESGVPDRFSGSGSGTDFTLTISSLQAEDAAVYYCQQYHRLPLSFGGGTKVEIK

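This is the validation round: designs drawn from the data on random variants, tested in the same kind of assay. Their group label is 14H_En_Gen (En: ensemble of fine-tuned language models; Gen: genetic algorithm). Affinity was read by AlphaSeq, a pooled yeast mating assay with surface-displayed partners. Binding brings cells together so that they mate, and sequencing counts the barcode pairs among the diploids. The ratio of observed to expected reads was calibrated, replicate by replicate, on BCL2-family standards whose Kd was known from biolayer interferometry. Mating was done six times.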

The parent's heavy chain CDRs are GFTLNSYGIS, VIYSDGRRTFYGDSVK, GRAAGTFDS; each variant's own CDRs replace them letter for letter.
Numbers give log10(Kd / nM), so 0 is 1 nM and 3 is 1 µM. Smaller is tighter.
Replicates are averaged; those with no signal do not enter the mean.
"ND" means that the variant was in the library but no mating with the target was seen in that replicate; the authors take this as a sign of poor binding, and no number exists.
A sequence measured in both rounds can read differently, since the two assays cover different ranges.
In the paper, a design with two or fewer of six values counts as a poor binder.
Background: pairings of all heavy chain designs with three empty control strains gave a value in 1% of cases (median 2.08, 5th percentile 0.84). Values in that range, when seen in few replicates, are hard to tell from nonspecific mating. Also given: how often the same scFv was detected with the empty control strains, with their mean in brackets.

CDR-H1,CDR-H2,CDR-H3,"log10 Kd, replicates","log10 Kd (nM), mean",empty controls
GFDLNEYGIS,VIYADGRRKAYADSVK,GNVAGTFDI,-0.87 -0.39 -0.86 -0.54 -0.08 0.13,-0.44,0/18
GFDLNEYGIS,VIYADGKRTAYSDSVK,GNQAGTFDI,-0.21 0.13 -0.27 0.41 -0.33 -0.15,-0.07,0/18
GFDLNEYGIS,VIYADGMRTFYADSVK,GQTAGTFDV,-0.08 0.40 0.32 0.50 -0.28 -0.17,0.11,0/18
GFDLNEYGIS,VIYADGRRTYYADSVK,GNNAGTFDI,0.43 0.25 0.30 0.19 0.95 0.08,0.37,0/18
GFDLNEYGIS,VIYADGKRTAYADSVK,GNQAGTFDV,0.72 0.35 ND -1.20 0.23 -0.59,-0.10,0/18
GFDLNEYGIS,VIYADGIRTAYADDVK,GNVAGTFDL,-0.16 -0.24 -0.18 -0.51 -0.54 -0.33,-0.33,0/18
GFDLNEYGIS,VIYADGVRKAYSDSVK,GQNAGTFDV,-0.26 -0.30 -0.46 -0.26 -0.61 -0.24,-0.35,0/18
GFDLNEYGIS,VIYADGMRTYYADSVK,GNVAGTFDA,-0.72 -0.86 -0.93 -1.29 -1.10 -0.82,-0.95,0/18
GFDLEEYGIS,VIYADGMRTAYADDVK,GNNAGTFDV,ND ND ND 1.62 ND 1.97,1.79,1/18 (1.58)
GFDLNEYGIS,VIYADGKRTVYSDSVK,GNVAGTFDV,-0.77 -0.72 -0.79 -0.88 -1.02 -0.61,-0.80,0/18
GFDLNEYGIS,VIYADGMRTAYSDDVK,GNTAGTFDV,ND ND ND ND ND -1.20,-1.20,0/18
GFDLDEYGIS,VIYADGQRTAYSDSVK,GEVAGTFDV,-0.63 -0.78 -0.73 -0.98 -0.39 -0.83,-0.72,0/18
GFDLNEYGIS,VIYADGQRTAYSDSVK,GNNAGTFDL,ND -0.08 -1.30 0.56 -1.34 -0.89,-0.61,0/18
GFDLNEYGIS,VIYADGKRTAYVDSVK,GNVAGTFDM,-0.34 -0.62 -0.85 -0.96 -0.46 -0.27,-0.58,0/18
GFDLNEYGIS,VIYADGKRTFYADSVK,GQNAGTFDI,-1.09 0.20 -0.73 -0.54 0.25 -0.30,-0.37,0/18
GFDLNEYGIS,VIYADGVRTAYADKVK,GENAGTFDV,0.21 0.02 -0.29 -0.08 0.24 0.13,0.04,0/18
GFDLNEYGIS,VIYADGMRTAYTDDVK,GNQAGTFDV,0.08 -0.09 -0.22 -0.29 -0.04 0.00,-0.09,0/18
GFDLNEYGIS,VIYADGRRTSYADSVK,GENAGTFDV,0.18 0.29 0.41 0.22 -0.38 -0.14,0.10,1/18 (1.58)
GFDLDEYGIS,VIYADGKRTAYVDSVK,GQNAGTFDV,ND ND ND ND ND ND,ND,0/18
GFDLNEYGIS,VIYADGVRTAYTDSVK,GNQAGTFDL,0.50 0.56 0.18 0.36 0.08 0.81,0.41,0/18
GFDLNEYGIS,VIYADGKRTAYVDSVK,GETAGTFDQ,-0.46 -0.65 -0.56 -0.62 -0.47 -0.67,-0.57,0/18
GFDLNEYGIS,VIYADGMRTAYVDSVK,GENAGTFDV,ND 0.86 0.94 1.75 1.06 1.29,1.18,0/18
GFDLNEYGIS,VIYADGVRTAYADSVK,GNVAGTFDI,-0.32 -0.08 -0.59 -0.29 -0.35 0.47,-0.19,0/18
GFDLNEYGIS,VIYADGVRTAYANDVK,GNVAGTFDV,-0.14 -0.25 -0.45 -0.59 -0.15 0.53,-0.18,0/18
GFDLNEYGIS,VIYADGMRKVYADSVK,GNVAGTFDL,-0.63 -0.71 -0.42 -0.64 -0.68 -0.69,-0.63,0/18
GFDLNEYGIS,VIYADGKRTAYTDSVK,GNVAGTFDV,-0.22 -0.55 -0.45 -0.63 -0.54 -0.39,-0.46,1/18 (2.26)
GFDLNEYGIS,VIYADGMRTAYANSVK,GNVAGTFDI,-0.26 0.08 -0.42 -0.28 -0.46 -0.53,-0.31,0/18
GFDLEDYGIS,VIYADGQRTAYADSVK,GNVAGTFDL,0.54 -0.18 -0.23 -0.18 -0.36 0.30,-0.02,0/18
GFDLNEYGIS,VIYADGMRTAYQDSVK,GNVAGTFDQ,0.06 -0.58 -0.03 -0.48 -0.69 -0.32,-0.34,0/18
GFDLNEYGIS,VIYADGRRTVYADSVK,GENAGTFDI,-0.01 -0.36 -0.45 -0.36 -0.43 -0.27,-0.31,0/18
GFDLNEYGIS,VIYADGMRQAYADSVK,GENAGTFDL,0.39 -0.31 -0.31 -0.39 -0.57 -0.27,-0.24,0/18
GFDLNEYGIS,VIYADGLRTAYADDVK,GNNAGTFDV,-0.56 -0.56 -0.59 -0.56 -0.28 -0.60,-0.53,0/18
GFDLEEYGIS,VIYADGRRTAYADSVK,GEVAGTFDV,0.07 0.44 -0.94 0.54 -0.36 -0.75,-0.17,0/18
GFDLNEYGIS,VIYADGMRSYYADSVK,GENAGTFDV,-0.32 -0.16 -0.37 -0.81 -0.43 -0.51,-0.43,0/18
GFDLDEYGIS,VIYADGMRTAYADSVK,GANAGTFDV,-0.10 -0.40 -0.26 -0.55 -0.61 -0.36,-0.38,0/18
GFNLDEYGIS,VIYADGMRTFYADSVK,GEVAGTFDV,-0.07 -0.18 -0.39 -0.49 -0.31 -0.25,-0.28,0/18
GFDLNEYGIS,VIYADGMRTFYADDVK,GENAGTFDT,-0.39 -0.67 -0.40 -0.84 -0.92 -0.73,-0.66,0/18
GFDLNEYGIS,VIYADGRRTAYADSVK,GNVAGTFDI,-0.42 -0.63 -0.33 -0.29 -0.50 -0.54,-0.45,0/18
GFDLNEYGIS,VIYADGKRTVYADSVK,GGNAGTFDV,-0.28 -0.49 -0.69 -0.61 -0.50 -0.25,-0.47,2/18 (3.44)
GFDLNEYGIS,VIYADGMRKAYADNVK,GENAGTFDV,-0.97 -0.93 -0.74 -1.01 -0.84 -0.66,-0.86,0/18
GFDLNEYGIS,VIYADGVRQAYADSVK,GNVAGTFDL,-0.18 -0.29 -0.44 -0.48 -0.63 -0.14,-0.36,0/18
GFDLNEYGIS,VIYADGVRTAYQDSVK,GNNAGTFDV,-0.47 0.02 0.60 -0.70 -0.01 0.02,-0.09,0/18
GFDLNEYGIS,VIYADGKRTYYADSVK,GEVAGTFDV,-0.65 -0.45 -0.58 -1.04 -0.23 -0.68,-0.61,0/18
GFDLNEYGIS,VIYADGMRSAYADSVK,GNVAGTFDI,-0.82 -0.93 -0.23 -0.70 -0.97 -0.85,-0.75,0/18
GFDLNEYGIS,VIYADGMRKAYADDVK,GETAGTFDV,0.12 0.37 -0.16 -0.21 -0.31 -0.36,-0.09,0/18
GFDLNEYGIS,VIYADGKRTAYVDSVK,GETAGTFDV,ND ND ND ND ND ND,ND,0/18
GFDLDEYGIS,VIYADGVRTAYADDVK,GNVAGTFDV,-0.55 -0.51 -0.72 -0.87 -0.60 -0.45,-0.62,0/18
GFDLNEYGIS,VIYADGMRTAYADDVK,GEVAGTFDI,-0.14 0.74 -0.19 -0.39 -0.50 0.18,-0.05,0/18
GFDLNEYGIS,VIYADGQRTAYADDVK,GENAGTFDL,-0.28 -0.30 0.33 -0.60 -0.50 -0.22,-0.26,0/18